# Read-outs that look alike come from different tables or passages of the source.
# Sequences of proteins named here, by UniProt entry; tags and fusion partners are left off.
# UniProt P21396, whole entry: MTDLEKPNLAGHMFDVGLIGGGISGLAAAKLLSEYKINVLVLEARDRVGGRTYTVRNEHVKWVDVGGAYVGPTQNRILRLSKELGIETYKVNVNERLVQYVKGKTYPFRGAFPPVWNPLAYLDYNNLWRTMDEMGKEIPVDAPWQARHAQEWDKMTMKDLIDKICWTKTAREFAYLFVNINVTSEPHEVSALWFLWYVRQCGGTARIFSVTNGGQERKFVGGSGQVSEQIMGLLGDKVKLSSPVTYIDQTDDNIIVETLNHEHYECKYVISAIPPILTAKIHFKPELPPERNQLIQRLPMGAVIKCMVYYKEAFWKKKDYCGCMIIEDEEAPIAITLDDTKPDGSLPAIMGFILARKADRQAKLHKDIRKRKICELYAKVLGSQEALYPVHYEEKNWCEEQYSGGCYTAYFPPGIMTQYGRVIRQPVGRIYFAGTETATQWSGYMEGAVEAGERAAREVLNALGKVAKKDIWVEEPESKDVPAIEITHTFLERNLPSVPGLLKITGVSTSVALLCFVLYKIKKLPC
# Assays:
# [1] = system: total monoamine oxidase (Σ MAO); details: for Σ MAO activity (% inhibition): solvent 0.03% DMSO only, neonatal rat striatal astroglial cell extracts
# Protocol: (§1) Neonatal rat striatal astroglial cells were used as a source for both MAO-A and MAO-B activity (Carlo et al., Brain Res 711, 175-183, 1996). Astroglial cells were cultured as described (Langeveld et al., Neurosci. Lett. 192, 13-16, 1995). Following one week in culture in 5% CO2/95% air and at 37° C., cells were trypsinized and sonicated in ice cold 25 mM Tris-HCl buffer (pH 7.4) containing 1 mM EDTA. Thereafter, the obtained lysates were centrifuged for 5 min at 1 0,000 g and 4° C., and aliquots of the supernatant fractions were taken for determination of MAO activity using the Amplex Red MAO assay kit (Molecular Probes, Leiden, The Netherlands), which is based on the method described by Zhou and Panchuk-Voloshina (Anal. Biochem. 253, 169-174, 1997). Measurements were performed according to the manufacturers instructions. Briefly, prior to addition of the substrate, the samples were incubated for 30 min in a 96 well plate with drugs or solvent (total volume of 50 μl). Thereafter, 50 μl Amplex Red reagent was added containing 2 U/ml horseradisch peroxidase (HRP), p-tyramine HCl (2 mM, substrate for both MAO A and MAO B (Youdim and Finberg, Biochem. Pharmacol., 41, 155-162, 1991) and Amplex red (10 mM). Under these circumstances, via MAO-catalyzed oxidation of tyramine in a HRP-coupled reaction, Amplex red is converted to fluorescent resorufin. To measure MAO activity, the time-dependent increase in resorufin formation was determined at 2 min time intervals for 30 min at room temperature in a fluorescence microplate reader (BMG Labtechnologies GmbH, Germany), using excitation at 544 nm and emission at 595 nm. […] For calculation of results, the data were corrected for background readings (i.e., in the absence of the MAO substrate tyramine), and expressed as the increase in arbitrary fluorescence units/min. Protein content was determined according to the method of Bradford et al., (Anal. Biochem. 72, 248-254, 1976), using BSA as a standard. Statistical comparisons between groups were made using a one-way analysis of variance (ANOVA) followed by a Newman-Keuls post-hoc test. P values <0.01 were considered significant.
# (§2) MAO activity and effects of the drugs thereon were determined as detailed above.
# (§3) Data are expressed as percentages of respective controls, and are averages of two till five independent experiments performed in triplicate.
# [2] = biological target: monoamine oxidase A (MAO-A) (Rattus norvegicus, UniProt P21396)
# Protocol: as §1, §2, §3
Structure (SMILES),Σ MAO activity (% inhibition) ([1]; 0.003 μM) [%],Σ MAO activity (% inhibition) ([1]; 0.01 μM) [%],Σ MAO activity (% inhibition) ([1]; 0.03 μM) [%],Σ MAO activity (% inhibition) ([1]; 0.1 μM) [%],Σ MAO activity (% inhibition) ([1]; 0.3 μM) [%],Σ MAO activity (% inhibition) ([1]; 1 μM) [%],"IC50 ([1]; read-out: apparent IC50, inhibition of total astroglial MAO activity, substrate tyramine, astroglial cell extracts) [nM]","MAO-A activity (% inhibition) ([2]; 0.1 μM, in the presence of 1 μM deprenyl, astroglial cell extracts) [%]",inhibition of remaining MAO activity (approximately 20%) ([2]; in the presence of a maximally effective concentration of deprenyl)
"C#CCN(C)[C@H](C)Cc1ccccc1 [L-dep, deprenyl]",2,10,28,56,73,79,~40,–,–
"C#CCN(C)CCCOc1ccc(Cl)cc1Cl [Clor, clorgyline]",–,–,–,–,–,–,–,100,inhibited completely

# — patent US20060194971A1, “Anethole dithiolethione and other dithiolethiones for the treatment of conditions associated with dysfunction of monoamine neruotransmission” (priority 2005, published 2006)
